# In patent US10675284B2, “Treatment of B-cell malignancies by a combination JAK and PI3K inhibitors” (Incyte Corporation, priority 2014, dated 2020):
# Protein sequences, listed by entry. Tags and fused reporters are not part of them. Lines headed by an entry give the natural chain unless they say otherwise; changes in a name come on top.
# UniProt P23458: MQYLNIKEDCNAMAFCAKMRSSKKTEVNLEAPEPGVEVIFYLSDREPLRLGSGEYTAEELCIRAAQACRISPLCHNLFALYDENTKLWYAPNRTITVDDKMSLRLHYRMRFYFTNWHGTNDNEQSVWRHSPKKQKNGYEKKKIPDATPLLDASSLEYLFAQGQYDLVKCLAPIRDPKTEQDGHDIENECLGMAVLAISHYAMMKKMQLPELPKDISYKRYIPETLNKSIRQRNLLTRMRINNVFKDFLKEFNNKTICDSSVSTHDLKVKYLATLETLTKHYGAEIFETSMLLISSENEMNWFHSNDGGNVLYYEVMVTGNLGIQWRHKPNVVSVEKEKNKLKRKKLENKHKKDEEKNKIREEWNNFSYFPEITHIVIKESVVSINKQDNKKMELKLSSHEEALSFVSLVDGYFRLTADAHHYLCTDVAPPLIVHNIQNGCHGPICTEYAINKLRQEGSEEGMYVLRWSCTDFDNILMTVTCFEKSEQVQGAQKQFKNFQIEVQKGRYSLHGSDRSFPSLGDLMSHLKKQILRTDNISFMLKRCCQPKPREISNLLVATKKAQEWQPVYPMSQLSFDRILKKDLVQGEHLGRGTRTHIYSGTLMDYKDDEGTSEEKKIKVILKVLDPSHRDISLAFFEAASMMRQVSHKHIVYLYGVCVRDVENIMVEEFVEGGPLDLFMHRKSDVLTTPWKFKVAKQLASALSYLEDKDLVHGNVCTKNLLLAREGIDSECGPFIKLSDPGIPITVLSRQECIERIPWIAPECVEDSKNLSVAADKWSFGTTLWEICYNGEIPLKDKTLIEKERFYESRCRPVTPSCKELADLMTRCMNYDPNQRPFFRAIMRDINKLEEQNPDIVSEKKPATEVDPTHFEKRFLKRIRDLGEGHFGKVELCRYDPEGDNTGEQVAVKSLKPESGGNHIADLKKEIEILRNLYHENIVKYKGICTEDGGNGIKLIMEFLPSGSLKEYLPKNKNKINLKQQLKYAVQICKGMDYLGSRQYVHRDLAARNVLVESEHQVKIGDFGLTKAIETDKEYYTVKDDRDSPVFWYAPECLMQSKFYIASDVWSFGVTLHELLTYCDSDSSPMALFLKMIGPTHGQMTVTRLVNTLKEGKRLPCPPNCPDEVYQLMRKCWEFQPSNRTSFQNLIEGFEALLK
# UniProt O00329: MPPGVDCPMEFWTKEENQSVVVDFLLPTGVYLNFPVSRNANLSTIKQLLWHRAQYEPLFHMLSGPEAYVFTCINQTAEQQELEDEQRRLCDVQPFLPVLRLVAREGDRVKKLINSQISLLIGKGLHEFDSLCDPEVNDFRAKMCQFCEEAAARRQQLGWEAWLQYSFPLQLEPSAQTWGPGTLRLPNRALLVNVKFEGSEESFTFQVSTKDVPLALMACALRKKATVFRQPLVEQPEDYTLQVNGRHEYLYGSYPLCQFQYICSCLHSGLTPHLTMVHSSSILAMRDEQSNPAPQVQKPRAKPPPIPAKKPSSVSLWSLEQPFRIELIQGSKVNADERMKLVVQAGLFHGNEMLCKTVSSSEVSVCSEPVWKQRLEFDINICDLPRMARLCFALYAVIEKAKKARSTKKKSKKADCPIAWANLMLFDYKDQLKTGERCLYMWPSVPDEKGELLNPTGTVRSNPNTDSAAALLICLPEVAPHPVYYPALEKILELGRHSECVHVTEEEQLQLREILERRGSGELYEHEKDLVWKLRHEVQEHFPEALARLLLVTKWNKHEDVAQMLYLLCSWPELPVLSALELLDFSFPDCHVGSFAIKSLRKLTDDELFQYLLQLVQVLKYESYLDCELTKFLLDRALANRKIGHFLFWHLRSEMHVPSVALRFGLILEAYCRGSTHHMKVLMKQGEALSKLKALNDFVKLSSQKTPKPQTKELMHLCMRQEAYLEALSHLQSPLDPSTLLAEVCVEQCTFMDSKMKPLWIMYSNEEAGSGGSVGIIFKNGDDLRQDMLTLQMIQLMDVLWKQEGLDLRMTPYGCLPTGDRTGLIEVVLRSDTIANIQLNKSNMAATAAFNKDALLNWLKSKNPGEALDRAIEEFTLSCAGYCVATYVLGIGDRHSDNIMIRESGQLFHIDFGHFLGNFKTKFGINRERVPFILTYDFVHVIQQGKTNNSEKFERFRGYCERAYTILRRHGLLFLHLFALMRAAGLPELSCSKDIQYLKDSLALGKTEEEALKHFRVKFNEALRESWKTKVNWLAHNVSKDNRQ
# Legend:
# [1] = target: human JAK1 (a.a. 837-1142) (Homo sapiens, UniProt P23458); assay: In vitro JAK kinase assay (HTRF), JAK1; assay type: biochemical; conditions: 1 mM ATP
# PI3Kδ (p110δ/p85α) = PI3Kδ (p110δ/p85α) (Homo sapiens (Human), UniProt O00329); assay: PI3Kδ scintillation proximity assay; assay type: biochemical; conditions: 20 μM ATP
# Pfeiffer cells = assay: Cell proliferation assay in Pfeiffer cells; assay type: cell-based, human; conditions: +IL-10 vs -IL-10
SMILES,IC50 [1] [nM],IC50 (PI3Kδ (p110δ/p85α)) [nM],shift of potency by presence of IL-10 (Pfeiffer cells) [fold]
"CN(C)Cc1cc(F)cc(OC2CCN(CC(CC#N)n3cc(-c4ncnc5[nH]ccc45)cn3)CC2)c1 (single isomer, unassigned) [Compound 14, 4-(4-{3-[(dimethylamino)methyl]-5-fluorophenoxy}piperidin-1-yl)-3-[4-(7H-pyrrolo[2,3-d]pyrimidin-4-yl)-1H-pyrazol-1-yl]butanenitrile]",< 10,–,–
"Cc1csc2nc(C(C)Nc3ncnc4[nH]cnc34)c(-c3cccc(F)c3)c(=O)n12 (stereo not shown) [Compound 27, 7-(1-(9H-purin-6-ylamino)ethyl)-6-(3-fluorophenyl)-3-methyl-5H-thiazolo[3,2-a]pyrimidin-5-one]",–,< 50,–
"Cc1csc2nc([C@H](C)Nc3ncnc4[nH]cnc34)c(-c3cccc(F)c3)c(=O)n12 [Compound 28, (S)-7-(1-(9H-purin-6-ylamino)ethyl)-6-(3-fluorophenyl)-3-methyl-5H-thiazolo[3,2-a]pyrimidin-5-one]",–,< 50,~10
